Values quoted from earlier work in patent US20170276668A1, “NEURAL MICROPHYSIOLOGICAL SYSTEMS AND METHODS OF USING THE SAME” (The Administrators of the Tulane Educational Fund, priority 2014, published 2017).

Test system: neuronal cell death in vitro
Details: cited from earlier work

For `O=C1[O][Pt]2([NH][C@@H]3CCCC[C@H]3[NH]2)[O]C1=O` [Oxaliplatin], the Neurotoxic dose is given as 15 µM.
